The species entered for assay [1] is Homo sapiens. Kind of assay: Selectivity ratio of IC50 for PI3Kgamma (unknown origin) over IC50 for PI3Kalpha (unknown origin).
For assay [2], the species on record is Homo sapiens. In words: Selectivity ratio of IC50 for PI3Kbeta (unknown origin) over IC50 for PI3Kalpha (unknown origin).
Assay [3] is filed under the species Homo sapiens. In words: Selectivity ratio of IC50 for PI3Kdelta (unknown origin) over IC50 for PI3Kalpha (unknown origin).

The results in this text go back to ChEMBL document CHEMBL5257112, “Discovery of 4-oxo-4,5-dihydropyrazolo[1,5-a]quinoxaline-7-carboxamide derivatives as PI3Kα inhibitors via virtual screening and docking-based structure optimization” (Bioorg Med Chem, 2023).

Structures are written as SMILES.

In the case of `CCn1c(=O)c2ccnn2c2cc(N)c(C(=O)NCc3cncnc3)cc21`, the Ratio IC50 in the assay filed under Homo sapiens [1] was 3.5; in the assay listed under Homo sapiens [2], above 41; in the assay filed under Homo sapiens [3] it was 17.
